Patent publication US8138187B2, “Substituted heteroaryl derivatives” (Gruenenthal GmbH, priority 2006, dated 2012)

Protein sequences, listed by entry. Tags and fused reporters are not part of them. Lines headed by an entry give the natural chain unless they say otherwise; changes in a name come on top.
UniProt P41146: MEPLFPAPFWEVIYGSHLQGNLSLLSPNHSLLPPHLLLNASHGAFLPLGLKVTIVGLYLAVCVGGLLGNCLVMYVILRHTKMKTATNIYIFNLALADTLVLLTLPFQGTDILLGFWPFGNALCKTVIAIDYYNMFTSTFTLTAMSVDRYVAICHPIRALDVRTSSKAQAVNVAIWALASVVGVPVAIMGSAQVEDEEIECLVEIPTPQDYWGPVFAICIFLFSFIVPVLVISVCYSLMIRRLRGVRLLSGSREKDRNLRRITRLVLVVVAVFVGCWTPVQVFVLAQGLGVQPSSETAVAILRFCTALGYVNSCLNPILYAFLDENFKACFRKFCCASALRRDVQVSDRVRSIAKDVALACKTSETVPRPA
UniProt P35372, whole entry, looked up: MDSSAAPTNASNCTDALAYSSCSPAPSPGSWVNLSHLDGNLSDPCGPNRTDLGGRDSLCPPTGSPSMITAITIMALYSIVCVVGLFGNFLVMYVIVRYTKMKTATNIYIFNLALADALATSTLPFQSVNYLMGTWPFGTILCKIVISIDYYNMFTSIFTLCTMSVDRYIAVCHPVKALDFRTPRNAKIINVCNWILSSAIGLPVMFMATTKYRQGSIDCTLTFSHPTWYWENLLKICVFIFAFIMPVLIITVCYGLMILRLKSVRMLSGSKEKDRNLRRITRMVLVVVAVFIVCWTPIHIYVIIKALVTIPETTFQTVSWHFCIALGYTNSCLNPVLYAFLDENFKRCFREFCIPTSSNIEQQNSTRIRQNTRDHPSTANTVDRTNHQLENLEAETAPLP

Key:
ORL1 receptor = ORL1 receptor (Homo sapiens, UniProt P41146); assay: ORL1 receptor binding assay with 3H-nociceptin/orphanin FQ; settings: membranes from recombinant CHO-ORL1 cells; for % inhibition (ORL1) at 1 μM: 1 μM test compound
human μ opiate receptor = human μ opiate receptor (Homo sapiens, UniProt P35372); assay: μ binding, displacement of [3H]-naloxone; settings: CHO-K1 membranes expressing human μ opiate receptor; for Ki: read-out: Ki [μM] (μ), Cheng-Prusoff; for % inhibition (μ) at 1 μM: 1 μM test compound

Row | Molecule | % inhibition (ORL1) at 1 μM (ORL1 receptor) [%] | % inhibition (μ) at 1 μM (human μ opiate receptor) [%] | other results
1 | CC(=O)OCCc1c(C2=CCC(c3ccccc3)(N(C)C)CC2)[nH]c2ccccc12 (centres unmarked) | 58 | – | Ki (human μ opiate receptor): 0.11 µM
2 | CCCCC1(N(C)C)CCC(c2[nH]c3ccc(C(F)(F)F)cc3c2C)CC1 (centres unmarked) | – | 21 | –
3 | CCCCC1(N(C)C)CCC(c2[nH]c3ccc(F)cc3c2C)CC1 (centres unmarked) | 92 | 102 | –
4 | CCCCC1(N(C)C)CCC(c2[nH]c3ccccc3c2C2CC2)CC1 (centres unmarked) | 18 | 27 | –
5 | CCCCC1(N(C)C)CCC(c2[nH]c3ccccc3c2CCNC(=O)CC(C)(C)C)CC1 (centres unmarked) | 78 | 96 | –
6 | CCCCC1(N(C)C)CCC(c2c[nH]c3ncccc23)CC1 (centres unmarked) | 74 | 64 | –
7 | CCCCC1(N2CCCC2)CCC(c2[nH]c3ccccc3c2C)CC1 (centres unmarked) | – | 15 | –
8 | CCCc1c(C2CCC(Cc3ccccc3)(N(C)C)CC2)[nH]c2ccccc12 (centres unmarked) | 11 | 41 | –
9 | CN(C)C1(Cc2ccccc2)CCC(c2[nH]c3ccccc3c2CCCC(=O)O)CC1 (centres unmarked) | 36 | 88 | –
10 | CN(C)C1(Cc2ccccc2)CCC(c2[nH]c3ccccc3c2CCCO)CC1 (centres unmarked) | 86 | 98 | –
11 | CN(C)C1(Cc2ccccc2)CCC(c2c[nH]c3ncccc23)CC1 (centres unmarked) | 22 | 36 | –
12 | CN(C)C1(c2ccccc2)CC=C(c2c(CCO)sc3ccccc23)CC1 (centres unmarked) | 65 | – | Ki (human μ opiate receptor): 0.21 µM
13 | CN(C)C1(c2ccccc2)CC=C(c2oc3ccccc3c2CCS)CC1 (centres unmarked) | 56 | – | Ki (human μ opiate receptor): 0.032 µM
14 | CN(C)C1(c2ccccc2)CCC(c2[nH]c3ccc(F)cc3c2CCn2cnc3ccccc32)CC1 (centres unmarked) | 102 | 97 | –
15 | CN(C)C1(c2ccccc2)CCC(c2[nH]c3ccccc3c2C2CC2)CC1 (centres unmarked) | 32 | 28 | –
16 | CN(C)C1(c2ccccc2)CCC(c2[nH]c3ccccc3c2CCC(=O)O)CC1 (centres unmarked) | 84 | 99 | –
17 | CN(C)C1(c2ccccc2)CCC(c2[nH]c3ccccc3c2CCCC(=O)O)CC1 (centres unmarked) | 83 | 99 | –
18 | CN(C)C1(c2ccccc2)CCC(c2[nH]c3ccccc3c2CCN2C(=O)c3ccccc3C2=O)CC1 (centres unmarked) | 70 | 89 | –
19 | CN(C)C1(c2ccccc2)CCC(c2[nH]c3ccccc3c2CCN2CCCCC2)CC1 (centres unmarked) | 99 | 95 | –
20 | CN(C)C1(c2ccccc2)CCC(c2[nH]c3ncccc3c2CCCO)CC1 (centres unmarked) | 67 | 88 | –
21 | CN(C)C1(c2ccccc2)CCC(c2c[nH]c3ccccc23)CC1 (centres unmarked) | 50 | 67 | –
22 | CN(C)C1(c2ccccc2)CCC(c2c[nH]c3ncccc23)CC1 (centres unmarked) | 39 | 62 | –
23 | CN(C)C1(c2ccccn2)CC=C(c2c(CCO)sc3ccccc23)CC1 (centres unmarked) | – | 31 | –
24 | CNCC(O)Cn1c(C2CCC(c3ccccc3)(N(C)C)CC2)c(C)c2ccccc21 (centres unmarked) | 57 | 57 | –
25 | Cc1c(C2=CCC(c3ccccc3)(N(C)C)CC2)oc2ccccc12 (centres unmarked) | – | 20 | –
26 | Cc1c(C2=CCC(c3ccccc3)(N(C)C)CC2)sc2ccccc12 (centres unmarked) | – | 42 | –

Row | Molecule | % inhibition (ORL1) at 1 μM (ORL1 receptor) [%] | % inhibition (μ) at 1 μM (human μ opiate receptor) [%] | other results
27 | Cc1c(C2CCC(c3ccccc3)(N(C)C)CC2)[nH]c2ccc(C#N)cc12 (centres unmarked) | 38 | 54 | –
28 | Cc1c(C2CCC(c3ccccc3)(N(C)C)CC2)[nH]c2ccc(C(F)(F)F)cc12 (centres unmarked) | 18 | 24 | –
29 | Cc1c(C2CCC(c3ccccc3)(N(C)C)CC2)n(CC2CO2)c2ccccc12 (centres unmarked) | 14 | 42 | –
30 | Cc1c(C2CCC(c3ccccc3)(N(C)C)CC2)sc2ccccc12 (centres unmarked) | – | 14 | –
31 | 1-(2-(2-(4-(Dimethylamino)-4-phenylcyclohexyl)-1H-indol-3-yl)ethyl)pyrrolidine-2.5-dione [Example 187] | – | – | % inhibition (ORL1) at 1 μM (ORL1 receptor; 1 µM): 100%; % inhibition (μ) at 1 μM (human μ opiate receptor; 1 µM): 100%
32 | 1-(2-(2-(4-(Dimethylamino)-4-phenylcyclohexyl)-1H-indol-3-yl)ethyl)pyrrolidine-2.5-dione [Example 188] | – | – | % inhibition (ORL1) at 1 μM (ORL1 receptor; 1 µM): 41%; % inhibition (μ) at 1 μM (human μ opiate receptor; 1 µM): 68%
33 | 2-(2-(4-(Dimethylamino)-4-phenylcyclohexyl)-1H-indol-3-yl)ethyl acetate | 23 | 62 | –
34 | 3-(2-(4-(Dimethylamino)-4-phenylcyclohexyl)-1H-indol-3-yl)propyl acetate [Example 185] | – | – | % inhibition (ORL1) at 1 μM (ORL1 receptor; 1 µM): 69%; % inhibition (μ) at 1 μM (human μ opiate receptor; 1 µM): 65%
35 | 3-(2-(4-(Dimethylamino)-4-phenylcyclohexyl)-1H-indol-3-yl)propyl acetate [Example 186] | – | – | % inhibition (ORL1) at 1 μM (ORL1 receptor; 1 µM): 98%; % inhibition (μ) at 1 μM (human μ opiate receptor; 1 µM): 101%
36 | 4-(1.3-Dimethyl-1H-indol-2-yl)-N,N-dimethyl-1-phenylcyclohexanamine | 67 | 91 | –
37 | 4-(2-(4-(Dimethylamino)-4-phenylcyclohexyl)-1H-indol-3-yl)butanol | 99 | 100 | –
38 | CCCCC1(N(C)C)CC=C(c2[nH]c3ccccc3c2CC2CCCCC2)CC1 (racemic) | 11 | – | –
39 | CCCCC1(N2CCCC2)CC=C(c2[nH]c3ccccc3c2C)CC1 (racemic) | – | 20 | –
40 | CCCCC1(N2CCCC2)CC=C(c2[nH]c3ccccc3c2CCc2ccncc2)CC1 (racemic) | – | 35 | –
41 | CN(C)C1(Cc2ccccc2)CC=C(c2[nH]c3ccccc3c2C2CC2)CC1 (racemic) | – | 30 | –
42 | CN(C)C1(Cc2ccccc2)CC=C(c2[nH]c3ccccc3c2CC2CCCCC2)CC1 (racemic) | – | 20 | –
43 | CN(C)C1(Cc2ccccc2)CC=C(c2[nH]c3ccccc3c2Cc2ccccc2)CC1 (racemic) | – | 13 | –
44 | CN(C)C1(c2cc3ccccc3s2)CC=C(c2[nH]c3ccc(F)cc3c2CCO)CC1 (racemic) | – | 64 | –
45 | CN(C)C1(c2cccc(F)c2)CC=C(c2[nH]c3ccccc3c2CCc2ccncc2)CC1 (racemic) | – | 67 | –
46 | CN(C)C1(c2cccs2)CC=C(c2[nH]c3ccccc3c2CCc2ccncc2)CC1 (racemic) | – | 92 | –
47 | CN1CCN(C2(Cc3ccccc3)CC=C(c3[nH]c4ccc(F)cc4c3CCO)CC2)CC1 (racemic) | – | 21 | –
48 | CNC1(c2ccccc2)CC=C(c2[nH]c3ccccc3c2CCc2ccncc2)CC1 (racemic) | – | 85 | –
49 | Cc1c(C2=CCC(Cc3ccccc3)(N(C)C)CC2)[nH]c2ccc(C#N)cc12 (racemic) | – | 62 | –
50 | Cc1c(C2=CCC(Cc3ccccc3)(N(C)C)CC2)[nH]c2ccc(F)cc12 (racemic) | – | 61 | –
51 | Cc1c(C2=CCC(c3cccs3)(N(C)C)CC2)[nH]c2ccccc12 (racemic) | – | 64 | –
52 | CN(C)C1(Cc2ccccc2)CC=C(c2cc3ccccc3n2C)CC1 (centres unmarked) [Example 302, [1-Benzyl-4-(1-methyl-1H-indol-2-yl)cyclohex-3-enyl]dimethylamine] | – | – | Ki (ORL1 receptor; read-out: Ki [μM] (ORL1)): 0.13 µM
